Test results taken from paper PMC4741518, “Adaptive Remodeling of the Bacterial Proteome by Specific Ribosomal Modification Regulates Pseudomonas Infection and Niche Colonisation” (PLoS Genetics, 2016).

Test system: Nc1ncnc2c1ncn2[C@@H]1O[C@H](COP(=O)(O)OP(=O)(O)OP(=O)(O)O)[C@@H](O)[C@H]1O
Experiment: purified protein
Settings: RimK alone, no RpsF, no glutamate, 2 mM MgCl2, 10 mM KCl, pH 8.0, Hill equation fit

RimKPf (SBW25 RimK) (Pseudomonas [fluorescens] SBW25)
Km: 370 ± 130 µM
